First the molecules themselves.
B1: RAC-alpha serine/threonine-protein kinase (Homo sapiens), P31749 (parent)
chain: MSDVAIVKEGWLHKRGEYIKTWRPRYFLLKNDGTFIGYKERPQDVDQREAPLNNFSVAQCQLMKTERPRPNTFIIRCLQWTTVIERTFHVETPEEREEWTTAIQTVADGLKKQEEEEMDFRSGSPSDNSGAEEMEVSLAKPKHRVTMNEFEYLKLLGKGTFGKVILVKEKATGRYYAMKILKKEVIVAKDEVAHTLTENRVLQNSRHPFLTALKYSFQTHDRLCFVMEYANGGELFFHLSRERVFSEDRARFYGAEIVSALDYLHSEKNVVYRDLKLENLMLDKDGHIKITDFGLCKEGIKDGATMKTFCGTPEYLAPEVLEDNDYGRAVDWWGLGVVMYEMMCGRLPFYNQDHEKLFELILMEEIRFPRTLGPEAKSLLSGLLKKDPKQRLGGGSEDAKEIMQHRFFAGIVWQHVYEKKLSPPFKPQVTSETDTRYFDEEFTAQMITITPPDQDDSMECVDSERRPHFPQFSYSASGTA

Variants of B1 are the subject of one assay. As to conditions: with ccna2_human CCNA2.
With R76A;L78A, the “effect of a mutation on the interaction” value was “decreasing interaction strength”.

Consider R76A;S477D;T479E, for which the “effect of a mutation on the interaction” value is “disrupting interaction strength”.

In the case of R370A;L372A, the “effect of a mutation on the interaction” value is “decreasing interaction strength”.

On to R76A, for which the “effect of a mutation on the interaction” value is reported as “disrupting interaction strength”.

Consider R273A;L275A, for which the “effect of a mutation on the interaction” value was “disrupting interaction strength”.

In another assay the parent is B1. The settings on record: with sin1_human MAPKAP1, Q9BPZ7.
S477D;T479E: the “effect of a mutation on the interaction” value is “increasing interaction strength”.
